For the test, the target named is DRB1-0101-pp65 (human) (UniProt P01903). The experiment in a line: ELISA. On the technique in general: In an ELISA, binding on a coated surface is turned into a signal by an enzyme label.

pKd: −log10 of the molar value.

For orientation: pKd means −log10 of the Kd, conventionally taken in molar units. As to pp65, the negative logarithm of the Kd (pKd) is 7.63.

The values above are taken from patent publication US20240255522A1.
